Source: patent publication EP1163245B1, “(THIO) PHOSPHORYL TRIAMIDES FOR REGULATING THE ENZYMATIC UREA HYDROLYSIS” (dated 2000)

System: Urease
Assay: Test for urease-inhibiting effect in soil (ammonia released from urea trapped as ammonium, t50 calculated)
Settings: 30 g Boden, 40 % der maximalen Wasserkapazität, 50 mg Harnstoff, t50 = time in days in which 50 % of the urea is converted by urease
[1] = Table 2, Carbamidsäureesterphosphorsäurediamide, Konzentration 0,1 % Harnstoff N-bez.
[2] = Table 1, Ureidophosphorsäurediamide, Konzentration 0,1 % Harnstoff N-bez.

Compound | t50-Wert (d) [1] | t50-Wert (d) [2] | other results
NC(=O)NP(N)(N)=O |  |  | t50-Wert (d) (Table 1, Ureidophosphorsäurediamide, Konzentration 0,4 % Harnstoff N-bez.): 6,1 d
NP(N)(=O)NC(=O)NNC(=O)c1ccccc1 | 9,6 d |  | 
NP(N)(=O)NC(=O)Nc1ccccc1 |  | 2,5 d | 
1-Adipinsäurebis-(diaminophosphorylsemicarbazid) | 7,7 d |  | 
Diaminophosphorylcarbamidsäurebenzylester | 5,5 d |  | 
Diaminophosphorylcarbamidsäureisopropylester | 5,8 d |  | 
Diaminophosphorylcarbamidsäuremethylester | 7,1 d |  | 
Diaminophosphorylharnstoff |  | 0,5 d | 
N-(Diaminophosphoryl)-N'-phenylharnstoff |  | 1,0 d | 
